Source: patent US20240044881A1

Molecular target: Type II ClyA-CS nanopore (Salmonella typhi) (UniProt Q8Z727)
Experiment: single-channel current recording, planar lipid bilayer, -35 mV

human thrombin (from UniProt P00734 328-622) (enzyme)
HT Occupancy of L2 at -35 mV, %: 96%
